Results as given in patent US20250032569A1, “COMPOSITION, IN PARTICULAR COSMETIC FORMULATION, COMPRISING A VERBASCOSIDE EXTRACT” (MEDENA AG, priority 2021, published 2025).

Experiment: UVA/UVB ratio from absorption spectra (Eq. 3) and Boots UVA Star Rating
Assay type: physicochemical
Description: Critical Wavelength (λC) and the UVA/UVB ratios were also calculated from the absorption spectra and were collected in Table 2. […] According to these International indications, aqueous solutions of Haberlea rhodopensis with different concentrations of myconoside can be attributed to the group of good protection (2 UVA Star Rating).
In order to further characterize solutions as skin photo-protectors from UVA, the UVA/UVB ratio was calculated using Eq. 3: […]
In order to characterize the ability of creams to protect skin against UVA the UVA/UVB ratio was calculated using Eq. 3: […]

butylmethoxydibenzoylmethane [avobenzone]
2.26: UVA/UVB (chemical UV filter 0.5% in sun protective solution) | UVA/UVB (chemical UV filter 1% in sun protective solution) | UVA/UVB (chemical UV filter 2.5% in sun protective solution) | UVA/UVB (chemical UV filter 5% in sun protective solution) | ratio UVA/UVB (chemical sunscreen, no concentration stated)
